Test results: patent publication US20130096170A1 (priority 2011, published 2013)
Values joined by “and” are separate entries in the source; they are usually repeats but may differ in a detail not shown here. Equal values may be shown once. Read-outs that look alike come from different tables or passages of the source.

What was measured:
[1] = test system: initially intubated and mechanically ventilated pediatric subjects 1 month to <17 years; settings: for median total amount of rescue midazolam while intubated: subjects that required rescue
[2] = test system: intubated and mechanically ventilated pediatric subjects 2 to <17 years

Cc1cccc([C@H](C)c2cnc[nH]2)c1C [dexmedetomidine] was tested, and the “subjects not requiring rescue midazolam for sedation while intubated (target UMSS 1-3)” value ([1]; Group 1 low dose, all diagnoses, age groups combined, ASA P1, P2) was 13 (44.8) n (%), the “subjects not requiring rescue midazolam for sedation while intubated (target UMSS 1-3)” value ([1]; Group 1 low dose, all diagnoses, age groups combined, ASA P3, P4) was 24 (44.4) n (%) and the “subjects not requiring rescue midazolam for sedation while intubated (target UMSS 1-3)” value ([1]; Group 1 low dose, all diagnoses, age groups combined, total ASA class) was 37 (44.6) n (%). For the same molecule, the “subjects not requiring rescue midazolam for sedation while intubated (target UMSS 1-3)” value ([1]; Group 1 low dose, other diagnoses, age groups combined, ASA P1, P2) was 12 (57.1) n (%), the “subjects not requiring rescue midazolam for sedation while intubated (target UMSS 1-3)” value ([1]; Group 1 low dose, other diagnoses, age groups combined, ASA P3, P4) was 16 (55.2) n (%) and the “subjects not requiring rescue midazolam for sedation while intubated (target UMSS 1-3)” value ([1]; Group 1 low dose, other diagnoses, age groups combined, total ASA class) was 28 (56.0) n (%). The “subjects not requiring rescue midazolam for sedation while intubated (target UMSS 1-3)” value ([1]; Group 1 low dose, s/p CPB, Age Group II (24 mo-<17 y), ASA P1, P2) was 0/2, the “subjects not requiring rescue midazolam for sedation while intubated (target UMSS 1-3)” value ([1]; Group 1 low dose, s/p CPB, age groups combined, ASA P1, P2) was 1 (12.5) n (%) and the “subjects not requiring rescue midazolam for sedation while intubated (target UMSS 1-3)” value ([1]; Group 1 low dose, s/p CPB, age groups combined, ASA P3, P4) was 8 (32.0) n (%). The “subjects not requiring rescue midazolam for sedation while intubated (target UMSS 1-3)” value ([1]; Group 1 low dose, s/p CPB, age groups combined, total ASA class) was 9 (27.3) n (%), the “subjects not requiring rescue midazolam for sedation while intubated (target UMSS 1-3)” value ([1]; Group 2 high dose, all diagnoses, age groups combined, ASA P1, P2) was 10 (47.6) n (%) and the “subjects not requiring rescue midazolam for sedation while intubated (target UMSS 1-3)” value ([1]; Group 2 high dose, all diagnoses, age groups combined, ASA P3, P4) was 34 (56.7) n (%). The “subjects not requiring rescue midazolam for sedation while intubated (target UMSS 1-3)” value ([1]; Group 2 high dose, all diagnoses, age groups combined, total ASA class) was 44 (54.3) n (%), the “subjects not requiring rescue midazolam for sedation while intubated (target UMSS 1-3)” value ([1]; Group 2 high dose, other diagnoses, age groups combined, ASA P1, P2) was 9 (56.3) n (%) and the “subjects not requiring rescue midazolam for sedation while intubated (target UMSS 1-3)” value ([1]; Group 2 high dose, other diagnoses, age groups combined, ASA P3, P4) was 18 (58.1) n (%). The “subjects not requiring rescue midazolam for sedation while intubated (target UMSS 1-3)” value ([1]; Group 2 high dose, other diagnoses, age groups combined, total ASA class) was 27 (57.4) n (%), the “subjects not requiring rescue midazolam for sedation while intubated (target UMSS 1-3)” value ([1]; Group 2 high dose, s/p CPB, Age Group II (24 mo-<17 y), ASA P1, P2) was 0/2 and the “subjects not requiring rescue midazolam for sedation while intubated (target UMSS 1-3)” value ([1]; Group 2 high dose, s/p CPB, age groups combined, ASA P1, P2) was 1 (20.0) n (%). The “subjects not requiring rescue midazolam for sedation while intubated (target UMSS 1-3)” value ([1]; Group 2 high dose, s/p CPB, age groups combined, ASA P3, P4) was 16 (55.2) n (%), the “subjects not requiring rescue midazolam for sedation while intubated (target UMSS 1-3)” value ([1]; Group 2 high dose, s/p CPB, age groups combined, total ASA class) was 17 (50.0) n (%) and the “difference (Group 1 − 2) in % of subjects not requiring rescue midazolam” value ([1]; all diagnoses, Age Group I (1-<24 mo), ASA P1, P2) was −5.96. For the same molecule, the “difference (Group 1 − 2) in % of subjects not requiring rescue midazolam” value ([1]; all diagnoses, Age Group I (1-<24 mo), ASA P3, P4) was −11.55, the “difference (Group 1 − 2) in % of subjects not requiring rescue midazolam” value ([1]; all diagnoses, Age Group I (1-<24 mo), total ASA class) was −9.71 and the “difference (Group 1 − 2) in % of subjects not requiring rescue midazolam” value ([1]; all diagnoses, Age Group II (24 mo-<17 y), ASA P1, P2) was 6.67. The “difference (Group 1 − 2) in % of subjects not requiring rescue midazolam” value ([1]; all diagnoses, Age Group II (24 mo-<17 y), ASA P3, P4) was −13.16, the “difference (Group 1 − 2) in % of subjects not requiring rescue midazolam” value ([1]; all diagnoses, Age Group II (24 mo-<17 y), total ASA class) was −9.85 and the “difference (Group 1 − 2) in % of subjects not requiring rescue midazolam” value ([1]; all diagnoses, age groups combined, ASA P1, P2) was −2.79. The “difference (Group 1 − 2) in % of subjects not requiring rescue midazolam” value ([1]; all diagnoses, age groups combined, ASA P3, P4) was −12.22, the “difference (Group 1 − 2) in % of subjects not requiring rescue midazolam” value ([1]; all diagnoses, age groups combined, total ASA class) was −9.74 and the effectiveness at sedating ([1]; critically ill, initially intubated infants and children after cardiac surgery with CPB and non-cardiac surgery) was “clinically effective”. For the same molecule, the “median amount of rescue midazolam per kg” value ([1]; high dose) was 0.179 mg/kg, the “median time from start of infusion to first dose of rescue medication” value ([1]; high dose) was 2.0 h and the “median time to successful extubation” value ([1]; high dose) was 20.5 h. The “subjects who required rescue midazolam for sedation” value ([1]; high dose, age groups combined (37/81)) was 45.7%, the “subjects not requiring rescue midazolam, number and percent of column N” value ([1]; high dose, other Dx, Age Group I (1-<24 mo), ASA P1, P2, N = 16) was 7 (43.8) n (%) and the “subjects not requiring rescue midazolam, number and percent of column N” value ([1]; high dose, other Dx, Age Group I (1-<24 mo), ASA P3, P4, N = 31) was 13 (41.9) n (%). For the same molecule, the “subjects not requiring rescue midazolam, number and percent of column N” value ([1]; high dose, other Dx, Age Group I (1-<24 mo), total ASA class, N = 47) was 20 (42.6) n (%), the “subjects not requiring rescue midazolam, number and percent of column N” value ([1]; high dose, other Dx, Age Group II (24 mo-<17 y), ASA P1, P2, N = 16) was 2 (12.5) n (%) and the “subjects not requiring rescue midazolam, number and percent of column N” value ([1]; high dose, other Dx, Age Group II (24 mo-<17 y), ASA P3, P4, N = 31) was 5 (16.1) n (%). The “subjects not requiring rescue midazolam, number and percent of column N” value ([1]; high dose, other Dx, Age Group II (24 mo-<17 y), total ASA class, N = 47) was 7 (14.9) n (%), the “subjects not requiring rescue midazolam, number and percent of column N” value ([1]; high dose, s/p CPB, Age Group I (1-<24 mo), ASA P1, P2, N = 5) was 1 (20.0) n (%) and the “subjects not requiring rescue midazolam, number and percent of column N” value ([1]; high dose, s/p CPB, Age Group I (1-<24 mo), ASA P3, P4, N = 29) was 9 (31.0) n (%). For the same molecule, the “subjects not requiring rescue midazolam, number and percent of column N” value ([1]; high dose, s/p CPB, Age Group I (1-<24 mo), total ASA class, N = 34) was 10 (29.4) n (%), the “subjects not requiring rescue midazolam, number and percent of column N” value ([1]; high dose, s/p CPB, Age Group II (24 mo-<17 y), ASA P1, P2, N = 5) was 0 n (%) and the “subjects not requiring rescue midazolam, number and percent of column N” value ([1]; high dose, s/p CPB, Age Group II (24 mo-<17 y), ASA P3, P4, N = 29) was 7 (24.1) n (%). The “subjects not requiring rescue midazolam, number and percent of column N” value ([1]; high dose, s/p CPB, Age Group II (24 mo-<17 y), total ASA class, N = 34) was 7 (20.6) n (%), the “median total amount of rescue midazolam while intubated” value ([1]; high dose) was 2.00 mg and the “subjects not requiring rescue midazolam, number and percent of column N” value ([1]; high dose, total, Age Group I (1-<24 mo), ASA P1, P2, N = 21) was 8 (38.1) n (%). The “subjects not requiring rescue midazolam, number and percent of column N” value ([1]; high dose, total, Age Group I (1-<24 mo), ASA P3, P4, N = 60) was 22 (36.7) n (%), the “subjects not requiring rescue midazolam, number and percent of column N” value ([1]; high dose, total, Age Group I (1-<24 mo), total ASA class, N = 81) was 30 (37.0) n (%) and the “subjects not requiring rescue midazolam, number and percent of column N” value ([1]; high dose, total, Age Group II (24 mo-<17 y), ASA P1, P2, N = 21) was 2 (9.5) n (%). For the same molecule, the “subjects not requiring rescue midazolam, number and percent of column N” value ([1]; high dose, total, Age Group II (24 mo-<17 y), ASA P3, P4, N = 60) was 12 (20.0) n (%), the “subjects not requiring rescue midazolam, number and percent of column N” value ([1]; high dose, total, Age Group II (24 mo-<17 y), total ASA class, N = 81) was 14 (17.3) n (%) and the “median amount of rescue morphine per kg” value ([1]; human, in vivo) was 0.20 mg/kg and 0.17 mg/kg. For the same molecule, the “median total amount of rescue morphine” value ([1]; human, in vivo) was 1.80 mg and 1.63 mg, the “subjects who received rescue morphine for analgesia while intubated” value ([1]; human, in vivo) was 42.2% and 39.5% and the “median amount of rescue midazolam per kg” value ([1]; low dose) was 0.266 mg/kg. The “median time from start of infusion to first dose of rescue medication” value ([1]; low dose) was 1.6 h, the “median time to successful extubation” value ([1]; low dose) was 23.8 h and the “subjects who required rescue midazolam for sedation” value ([1]; low dose, age groups combined (46/83)) was 55.4%. The “subjects not requiring rescue midazolam, number and percent of column N” value ([1]; low dose, other Dx, Age Group I (1-<24 mo), ASA P1, P2, N = 21) was 8 (38.1) n (%), the “subjects not requiring rescue midazolam, number and percent of column N” value ([1]; low dose, other Dx, Age Group I (1-<24 mo), ASA P3, P4, N = 29) was 12 (41.4) n (%) and the “subjects not requiring rescue midazolam, number and percent of column N” value ([1]; low dose, other Dx, Age Group I (1-<24 mo), total ASA class, N = 50) was 20 (40.0) n (%). For the same molecule, the “subjects not requiring rescue midazolam, number and percent of column N” value ([1]; low dose, other Dx, Age Group II (24 mo-<17 y), ASA P1, P2, N = 21) was 4 (19.0) n (%), the “subjects not requiring rescue midazolam, number and percent of column N” value ([1]; low dose, other Dx, Age Group II (24 mo-<17 y), ASA P3, P4, N = 29) was 4 (13.8) n (%) and the “subjects not requiring rescue midazolam, number and percent of column N” value ([1]; low dose, other Dx, Age Group II (24 mo-<17 y), total ASA class, N = 50) was 8 (16.0) n (%). For the same molecule, the “subjects not requiring rescue midazolam, number and percent of column N” value ([1]; low dose, s/p CPB, Age Group I (1-<24 mo), ASA P1, P2, N = 8) was 1 (12.5) n (%), the “subjects not requiring rescue midazolam, number and percent of column N” value ([1]; low dose, s/p CPB, Age Group I (1-<24 mo), ASA P3, P4, N = 25) was 4 (16.0) n (%) and the “subjects not requiring rescue midazolam, number and percent of column N” value ([1]; low dose, s/p CPB, Age Group I (1-<24 mo), total ASA class, N = 33) was 5 (15.2) n (%). The “subjects not requiring rescue midazolam, number and percent of column N” value ([1]; low dose, s/p CPB, Age Group II (24 mo-<17 y), ASA P1, P2, N = 8) was 0 n (%), the “subjects not requiring rescue midazolam, number and percent of column N” value ([1]; low dose, s/p CPB, Age Group II (24 mo-<17 y), ASA P3, P4, N = 25) was 4 (16.0) n (%) and the “subjects not requiring rescue midazolam, number and percent of column N” value ([1]; low dose, s/p CPB, Age Group II (24 mo-<17 y), total ASA class, N = 33) was 4 (12.1) n (%). For the same molecule, the “median total amount of rescue midazolam while intubated” value ([1]; low dose) was 1.965 mg, the “subjects not requiring rescue midazolam, number and percent of column N” value ([1]; low dose, total, Age Group I (1-<24 mo), ASA P1, P2, N = 29) was 9 (31.0) n (%) and the “subjects not requiring rescue midazolam, number and percent of column N” value ([1]; low dose, total, Age Group I (1-<24 mo), ASA P3, P4, N = 54) was 16 (29.6) n (%). The “subjects not requiring rescue midazolam, number and percent of column N” value ([1]; low dose, total, Age Group I (1-<24 mo), total ASA class, N = 83) was 25 (30.1) n (%), the “subjects not requiring rescue midazolam, number and percent of column N” value ([1]; low dose, total, Age Group II (24 mo-<17 y), ASA P1, P2, N = 29) was 4 (13.8) n (%) and the “subjects not requiring rescue midazolam, number and percent of column N” value ([1]; low dose, total, Age Group II (24 mo-<17 y), ASA P3, P4, N = 54) was 8 (14.8) n (%). For the same molecule, the “subjects not requiring rescue midazolam, number and percent of column N” value ([1]; low dose, total, Age Group II (24 mo-<17 y), total ASA class, N = 83) was 12 (14.5) n (%), the “weight-adjusted total amount of rescue midazolam while intubated, mean” value ([2]; Dose Level 1 (LD 0.25/CD 0.2 μg/kg/hr), full evaluable population) was 0.067 mg/kg and the “median time to first dose of rescue medication for sedation and analgesia” value ([2]; Dose Level 1, Table 26 (title: full evaluable population; b267: safety population)) was 1.0 h.
